From PubChem
RXFP1 antagonist – antagonists of human relaxin receptor RXFP1; Q9HBX9; HEK293-RXFP1, relaxin-stimulated cAMP HTRF, 30 min; hits give low values; activity change, negative = inhibition, % at 57.5 µM; actives 0.59% (n = 350,000);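 active means activity change of -60% or lower, but not beyond a set lower limit; inconclusive means change between -60% and -40%, or beyond the set limit; inactive means change above -40%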; further: on the % scale 0 is the no-effect control and ±100 the full control effect
GALK inh – inhibitors of human galactokinase. Purified GALK, Kinase-Glo residual ATP luminescence. Potency, µM (doses to about 57.5 µM), for the others: at the top dose activity change, negative = inhibition, usual class: inhibitors. actives 0.007% (n = 270,000); further: potency means the concentration at half of the fitted maximal effect; on the % scale 0 is the no-effect control and ±100 the full control effect
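Kinase-Glo Plus luminescence measured ATP left after a 1 h room-temperature reaction. The reaction used 5 nM GALK, 100 uM galactose and 35 uM ATP at pH 8.0 (20 mM HEPES, 5 mM MgCl2, 60 mM NaCl, 1 mM DTT, 0.01% BSA).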
Luc counter – blocks Kinase-Glo luciferase, a counter-screen artifact. Kinase-Glo luciferase, ATP luminescence, 8 min. Potency, µM (top dose mostly 38.3 µM), inactives show top-dose activity change, negative = inhibition, actives largely listed as inhibitors. actives 0.28% (n = 200,000). AID 1379; further: potency means the concentration at half of the fitted maximal effect; on the % scale 0 is the no-effect control and ±100 the full control effect; nearly all actives have a fitted effect of over 60% in size
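Luminescence was the read-out, taken after 8-minute incubation at ambient temperature. Luciferase turned over luciferin with 10 uM ATP in imidazole pH 7.2 buffer containing KCl, MgCl2, Tween 20 and BSA.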
PKM2 act – activators of human pyruvate kinase M2; P14618; purified PKM2, Kinase-Glo ATP luminescence, activation; response scale: 0% is enzyme alone, no compound; Potency, µM (doses to about 57.5 µM), for the others: top-dose activation, actives largely listed as activators; actives 0.34% (n = 260,000); AID 1631; further: potency means the concentration at half of the fitted maximal effect; on the % scale 0 is the no-effect control and ±100 the full control effect; nearly all actives have a fitted effect of over 55% in size
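ATP formation by purified human PK-M2, quantified via coupled luciferase luminescence after 1 h at room temperature with 0.1 mM ADP and 0.5 mM PEP final.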
RXFP1 agonist – RXFP1 (human) receptor agonism | Q9HBX9 | HEK293T-RXFP1 cAMP TR-FRET, 30 min; response scale: percent of porcine relaxin response, buffer zero | Potency, µM (doses to about 57.5 µM), inactives show at the top dose activation, actives largely listed as activators | actives 0.3% (n = 370,000); further: potency means the concentration at half of the fitted maximal effect; on the % scale 0 is the no-effect control and ±100 the full control effect; nearly all actives have a fitted effect of over 60% in size
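HEK293T cells stably expressing RXFP1 were pretreated with the PDE4 inhibitor Ro 20174, exposed to compounds for 30 min at 37C, lysed, and cAMP was read by TR-FRET. Data normalized to buffer (basal) and 29 nM porcine relaxin (100%).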
miR-21 reporter – raises the signal of a miR-21 reporter | HeLa miR-21 FLuc reporter, luciferase, 48 h | Potency, µM (highest dose often 38.3 µM), for inactives: at the highest dose reporter change, positive = more light | 340,000 tested, under 10 active | AID 2288; active = well fitted rising curve with a large enough effect; inconclusive = small, poorly fitted or top-dose-only effect; inactive = no such curve, though single readings can be large or run the other way;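 also: % of control where 0% means no effect; miR-21 action dims this reporter so a rising signal means less miR-21 action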
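Compounds were titrated across several concentrations (up to approximately 40 uM) and incubated 48 hours with HeLa miR-21-FLuc reporter cells (miR-21 target sequence downstream of FLuc, endogenous miR-21). Readout was firefly luciferase luminescence after lytic detection reagent.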
Starred values were filed as active, the others as inactive; [ ] = dose if it differs, or a comment. Sampled rows, rich in hits. Any-hit rate of the full collection: about 0.92%. Unless noted, the call rests on the fitted dose curve; in most records, active means well fitted curve in the direction sought with a large enough effect; inconclusive means small, poorly fitted or top-dose-only effect, or another doubt; inactive means no such curve, though single readings can be large; an effect the other way counts as inactive or inconclusive.

What do the screens show for `O=C(Cn1nnc(-c2ccccc2Cl)n1)N1CCN(S(=O)(=O)c2ccc(Cl)cc2)CC1`?
RXFP1 antagonist: 0; GALK inh: 0%; Luc counter: 1%; PKM2 act: 7.9µM*; RXFP1 agonist: 1%; miR-21 reporter: 0%

How did Cc1ccc(S(=O)(=O)N2CCCN(S(=O)(=O)c3ccc(C)cc3)CC2)cc1 do in these assays?
RXFP1 antagonist: 4; GALK inh: -2%; Luc counter: 3%; PKM2 act: 8.9µM*; RXFP1 agonist: 0%; miR-21 reporter: 1%

Results for COc1ccccc1-n1cnnc1SCC(=O)N1CCN(S(=O)(=O)c2ccccc2)CC1 ?
RXFP1 antagonist: -16; GALK inh: 0%; Luc counter: -3%; PKM2 act: 16µM*; RXFP1 agonist: 0%; miR-21 reporter: -3%

Results for O=C(Cn1nnc(-c2ccccc2Cl)n1)N1CCCCC1 ?
RXFP1 antagonist: 9; GALK inh: 4%; PKM2 act: 0%; RXFP1 agonist: 0%; miR-21 reporter: -53%

What do the screens show for `CCOP1(=O)OCC2OC(n3cnc4c(N)ncnc43)C(O)C2O1` (stereo not drawn)?
RXFP1 antagonist: 32; PKM2 act: -2%; RXFP1 agonist: 10µM*; miR-21 reporter: -6%

How did Nc1ncnc2c1ncn2[C@@H]1O[C@H](CO)[C@@H](O)[C@H]1O do in these assays?
RXFP1 antagonist: 2; Luc counter: -5%; PKM2 act: -4%; RXFP1 agonist: 26%; miR-21 reporter: -4%

How did Nc1ncnc2c1ncn2[C@@H]1O[C@@H](CO)[C@H](O)[C@H]1O do in these assays?
Luc counter: 1%[17.1 µM]

How did Nc1ncnc2c1ncn2[C@@H]1O[C@H](COP(=O)(O)OP(=O)(O)OP(=O)(O)OP(=O)(O)OC[C@@H]2O[C@H](n3cnc4c(N)ncnc43)[C@@H](O)[C@@H]2O)[C@H](O)[C@H]1O do in these assays?
Luc counter: 4.5µM*

How did CSc1ccc(/C=C/C(=O)Nc2ccccc2)cc1 do in these assays?
RXFP1 antagonist: -37; GALK inh: 4%; Luc counter: 13µM*; PKM2 act: -25%; RXFP1 agonist: 0%; miR-21 reporter: -9%

How did COC(=O)CC1C(C)(C)C(=O)C2CC3C4=CC(=O)OC(c5ccoc5)[C@]4(C)CCC3[C@@]1(C)C2=O (stereo partly drawn) do in these assays?
Luc counter: -3%

Results for O=C(Nc1ccc(Cl)cc1)c1cc2c(cc1O)[nH]c1ccccc12 ?
RXFP1 antagonist: -64*; GALK inh: 1%; PKM2 act: -6%; RXFP1 agonist: 5%; miR-21 reporter: inconclusive

Results for O=S(=O)(CCc1ccccc1)c1nnnn1-c1ccccc1 ?
Luc counter: 1%

What do the screens show for `Cc1ccc(NC(=O)Cn2c(=O)n(-c3ccccc3)c(=O)c3ccc(C(=O)NCc4ccc5c(c4)OCO5)cc32)cc1`?
RXFP1 agonist: 22µM*; miR-21 reporter: -10%

How did O=C(Cn1c(=O)n(-c2ccccc2)c(=O)c2ccc(C(=O)NCc3ccc4c(c3)OCO4)cc21)Nc1ccc(F)cc1 do in these assays?
RXFP1 agonist: 15%; miR-21 reporter: -5%

Results for Cc1ccc(-n2c(=O)c3ccc(C(=O)NCc4ccccc4Cl)cc3n(Cc3cccc(F)c3)c2=O)cc1 ?
RXFP1 agonist: 32µM*; miR-21 reporter: -6%

How did COc1ccc(-n2c(=O)c3ccc(C(=O)NCc4ccc(C)cc4)cc3n(CC(=O)Nc3cccc(F)c3)c2=O)cc1 do in these assays?
RXFP1 agonist: 32µM*; miR-21 reporter: -4%

Results for N#CCCCS(=O)(=O)c1ccccc1 ?
Luc counter: 0%

Results for CC1CC(C)CN(CCCn2c(=S)[nH]c3ccccc3c2=O)C1 (stereo not drawn) ?
RXFP1 antagonist: -11; GALK inh: 1%; Luc counter: -1%; PKM2 act: -5%; RXFP1 agonist: 0%; miR-21 reporter: -3%

What do the screens show for `C[C@@H]1CN(CCCn2c3ccccc3c3ccccc32)C[C@H](C)N1`?
RXFP1 antagonist: -97*; GALK inh: -1%; Luc counter: 2%; PKM2 act: -2%; RXFP1 agonist: 3%; miR-21 reporter: inconclusive

How did COc1ccc(NC(=O)CSc2n[nH]c(C(C)C)n2)c([N+](=O)[O-])c1 do in these assays?
RXFP1 antagonist: 9; GALK inh: 12%; Luc counter: 1%; PKM2 act: 20%; RXFP1 agonist: 1%; miR-21 reporter: 6%

Results for COc1ccc(NC(=O)CSc2n[nH]c(N)n2)c([N+](=O)[O-])c1 ?
RXFP1 antagonist: -16; GALK inh: 0%; Luc counter: -4%; PKM2 act: 14µM*; RXFP1 agonist: 5%; miR-21 reporter: -6%

What do the screens show for `CCC(C)NC(=O)c1sc2nc3n(c(=O)c2c1C)CCC3` (stereo not drawn)?
RXFP1 antagonist: -7; RXFP1 agonist: 3%; miR-21 reporter: -23%

How did O=C(NN=C1CCC(=NNC(=O)c2ccccn2)CC1)c1ccccn1 do in these assays?
RXFP1 antagonist: -13; GALK inh: 9%; Luc counter: -2%; PKM2 act: -5%; RXFP1 agonist: 0%; miR-21 reporter: -49%

How did Cc1cc2c(cc1C)/C(=N/NC(=O)c1ccccn1)CCC2 do in these assays?
RXFP1 antagonist: -93*; GALK inh: -1%; PKM2 act: -5%; RXFP1 agonist: -1%; miR-21 reporter: -39%

How did COc1cccc(C(=O)NNC(=O)C(=O)Nc2cccc(Cl)c2C)c1 do in these assays?
RXFP1 antagonist: -70*; GALK inh: -3%; PKM2 act: -10%; RXFP1 agonist: 1%; miR-21 reporter: -6%

Results for Cc1ccc(NC(=O)c2sc3nc4c(cc3c2N)CN(Cc2ccccc2)CC4)cc1 ?
RXFP1 antagonist: -10; RXFP1 agonist: -1%; miR-21 reporter: -5%

How did O=C(c1ccco1)N1CCN(C(=O)c2cc(Cl)nc3ccccc23)CC1 do in these assays?
RXFP1 antagonist: -7; RXFP1 agonist: 3%

How did O=C(c1ccco1)N1CCN(C(=O)c2cc(-c3ccccn3)nc3ccccc23)CC1 do in these assays?
RXFP1 antagonist: -8; GALK inh: 6%; Luc counter: -2%; PKM2 act: 20µM*; RXFP1 agonist: 1%; miR-21 reporter: -2%
